Values quoted from earlier work in the PKSmart pharmacokinetics tables (Seal et al. 2025).

Experiments:
[1] = Lombardo et al. 2013, J Clin Pharmacol 53:178, doi 10.1177/0091270012440282; conditions: for fraction unbound: plasma
[2] = Lombardo, Berellini, Obach 2018, Drug Metab Dispos 46:1466, doi 10.1124/dmd.118.082966; conditions: human; for fraction unbound: plasma

Compound	fraction unbound ([1]; monkey)	fraction unbound [2]	other results
Cn1c(=O)c2[nH]cnc2n(C)c1=O	–	–	Vd ([1]; rat, in vivo, iv): 0.55 L/kg
CC(C)NCC(O)COc1cccc2[nH]ccc12 (configuration not stated)	–	–	fraction unbound ([1]; dog): 0.556

More lines, main results first:

fraction unbound ([1]; monkey)	fraction unbound [2]	Compound	other results
0.75	–	CC(C)NCC(O)COc1ccc(COCCOC(C)C)cc1 (configuration not stated)	–
0.707	–	Cc1cn([C@H]2C[C@H](N=[N+]=[N-])[C@@H](CO)O2)c(=O)[nH]c1=O	clearance ([2]; in vivo, iv): 25 mL/min/kg
–	1	NC(=O)c1ncn([C@@H]2O[C@H](CO)[C@@H](O)[C@H]2O)n1	–
–	1	C[C@@H](CN1CC(=O)NC(=O)C1)N1CC(=O)NC(=O)C1	–
